Assay results: PubChem BioAssay (Tox21)
This is a selection; strong and weak results do not stand in their true shares. Inconclusive results are not listed. Calls of active or inactive are those of the source. Unless noted, calls come from the whole dose curve; as a rule, active = well fitted curve in the direction sought with a large enough effect in the repeat runs; inconclusive = weak or mixed curves; inactive = no such curve, though single readings can be large; an effect the other way counts as inactive or inconclusive.

Protein sequences, listed by entry. Tags and fused reporters are not part of them.
UniProt Q03181, whole entry: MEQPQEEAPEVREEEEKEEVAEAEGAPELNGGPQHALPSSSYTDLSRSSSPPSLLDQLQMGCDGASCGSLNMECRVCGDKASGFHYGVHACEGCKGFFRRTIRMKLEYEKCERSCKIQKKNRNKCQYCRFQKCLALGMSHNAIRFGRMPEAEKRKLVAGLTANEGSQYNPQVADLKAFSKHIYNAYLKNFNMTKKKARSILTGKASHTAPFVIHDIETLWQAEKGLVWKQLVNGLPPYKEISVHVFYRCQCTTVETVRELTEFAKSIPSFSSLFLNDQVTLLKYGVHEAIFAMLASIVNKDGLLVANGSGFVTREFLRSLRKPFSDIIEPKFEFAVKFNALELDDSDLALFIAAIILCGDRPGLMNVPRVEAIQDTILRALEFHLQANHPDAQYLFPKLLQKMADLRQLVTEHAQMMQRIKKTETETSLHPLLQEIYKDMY
UniProt Q96RI1, whole entry: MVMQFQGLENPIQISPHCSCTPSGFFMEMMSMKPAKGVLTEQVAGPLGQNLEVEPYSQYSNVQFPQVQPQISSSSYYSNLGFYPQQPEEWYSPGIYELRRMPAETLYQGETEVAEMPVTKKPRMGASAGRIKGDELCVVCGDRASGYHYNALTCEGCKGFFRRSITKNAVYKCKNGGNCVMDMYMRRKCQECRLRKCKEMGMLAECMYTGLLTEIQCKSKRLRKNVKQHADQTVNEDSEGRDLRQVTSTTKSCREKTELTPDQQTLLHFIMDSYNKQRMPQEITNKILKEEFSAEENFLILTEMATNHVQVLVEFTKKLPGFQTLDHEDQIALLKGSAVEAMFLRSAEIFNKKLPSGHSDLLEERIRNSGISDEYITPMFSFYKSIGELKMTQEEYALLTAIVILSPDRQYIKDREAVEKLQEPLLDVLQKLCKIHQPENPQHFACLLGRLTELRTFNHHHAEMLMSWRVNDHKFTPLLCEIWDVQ
UniProt P11473, whole entry: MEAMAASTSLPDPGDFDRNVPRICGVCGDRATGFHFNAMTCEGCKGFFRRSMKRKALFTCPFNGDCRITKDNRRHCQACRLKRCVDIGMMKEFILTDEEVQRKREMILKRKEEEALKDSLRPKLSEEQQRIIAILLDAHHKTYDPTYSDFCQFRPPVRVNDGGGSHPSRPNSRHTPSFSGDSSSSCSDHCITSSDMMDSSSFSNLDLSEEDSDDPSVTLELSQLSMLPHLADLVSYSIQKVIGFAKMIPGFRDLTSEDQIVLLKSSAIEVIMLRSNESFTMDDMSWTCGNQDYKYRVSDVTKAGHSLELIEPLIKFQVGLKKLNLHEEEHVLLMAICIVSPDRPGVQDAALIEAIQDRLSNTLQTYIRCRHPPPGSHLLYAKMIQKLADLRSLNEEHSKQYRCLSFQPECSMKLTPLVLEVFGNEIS

Tests used:
[1] = qHTS assay for small molecule agonists of the antioxidant response element (ARE) signaling pathway - cell viability counter screen (AID 743203; calls by dose curve; note: nearly all actives have a fitted effect of over 55% in size); settings: ARE-bla HepG2 viability, CellTiter-Glo luminescence, 16 h
Outline: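 CellSensor ARE-bla HepG2 cells, 2,000 per well, rested 5 hrs at 37C/5% CO2, then exposed to compound in DMSO for 16 hrs; viability read as CellTiter-Glo luminescence after 30 min at room temperature, in the reporter wells.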

[2] = qHTS assay for small molecule activators of the heat shock response signaling pathway (AID 743210; active = well fitted activation curve with a large enough effect in the signal ratio in the repeat runs, with a control signal flat, not every such curve was filed as active; the % refers to the signal ratio;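 note: HeLa cells with beta-lactamase reporter driven by heat shock elements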); settings: HeLa HSE-bla reporter, beta-lactamase ratio, 5 h
Outline: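 Quantitative high-throughput format using an engineered HeLa line in which heat shock response elements drive beta-lactamase; after 5 h with compound, cells received a B/G FRET substrate and fluorescence was read.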

[3] = qHTS assay to identify small molecule agonists of the peroxisome proliferator-activated receptor delta (PPARd) signaling pathway - cell viability counter screen (AID 743211); settings: PPARd-bla HEK293H viability, CellTiter-Glo luminescence, 17 h; note: nearly all actives have a fitted effect of over 55% in size
Outline: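 PPARd-bla HEK293H cells (UAS-beta-lactamase reporter) were treated with compounds for 17 h at 37 C. Viability was then read in the same wells by CellTiter-Glo luminescence after 30 min at room temperature.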

[4] = target: Peroxisome proliferator-activated receptor delta (Homo sapiens) (UniProt Q03181); assay: qHTS assay to identify small molecule agonists of the peroxisome proliferator-activated receptor delta (PPARd) signaling pathway (AID 743212; calls by dose curve); settings: HEK293H PPARd-UAS-bla, beta-lactamase FRET ratio, 17 h
Outline: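 Quantitative high-throughput agonist screen in a HEK293H beta-lactamase reporter line under UAS control. Compounds in DMSO, at 37 C. Fluorescence read after 2 h with FRET substrate at room temperature.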

[5] = qHTS assay to identify small molecule antagonists of the peroxisome proliferator-activated receptor delta (PPARd) signaling pathway - cell viability counter screen (AID 743213); settings: PPARd-bla HEK293H viability, CellTiter-Glo luminescence, 17 h; note: nearly all actives have a fitted effect of over 50% in size
Outline: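 In this counter screen, HEK293H cells carrying a UAS-beta-lactamase reporter are co-treated with test compounds and 300 nM L165041 (final) for 17 h at 37 C; cell viability is quantified by CellTiter-Glo luminescence.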

[6] = qHTS assay to identify small molecule agonists of the farnesoid-X-receptor (FXR) signaling pathway - cell viability counter screen (AID 743218); settings: FXR-bla HEK293T viability, CellTiter-Glo luminescence, 16 h; note: nearly all actives have a fitted effect of over 45% in size
Outline: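 FXR-UAS-bla HEK 293T cells, plated 5 h at 37 C, were exposed to compounds for 16 h at 37 C. CellTiter-Glo was then added to the same wells as the bla readout; luminescence read after 30 min at room temperature.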

[7] = qHTS assay to identify small molecule agonists of the vitamin D receptor (VDR) signaling pathway - cell viability counter screen (AID 743224); settings: VDR-bla HEK293T viability, CellTiter-Glo luminescence, 16 h; note: nearly all actives have a fitted effect of over 50% in size
Outline: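 VDR-bla cells were preincubated 4 h at 37C/5% CO2, then exposed to compounds for 16 h. After the 2 h room-temperature bla FRET read, CellTiter-Glo was added to the same wells and luminescence read after 30 min.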

[8] = target: Bile acid receptor (Homo sapiens) (UniProt Q96RI1); assay: qHTS assay to identify small molecule antagonists of the farnesoid-X-receptor (FXR) signaling pathway (AID 743217; active = well fitted inhibition curve with a large enough effect in the signal ratio in the repeat runs, not every such curve was filed as active; the % refers to the signal ratio); settings: HEK293T FXR-UAS-bla, beta-lactamase ratio, CDCA-stimulated, 16 h
From the text: U.S. Tox21 Program National Center for Advancing Translational Sciences [NCATS] NIH Chemical Genomics Center [NCGC] U.S. Environmental Protection Agency [EPA] National Institutes of Environmental Health Sciences [NIEHS] National Toxicology Program [NTP] U.S. Food and Drug Administration [FDA] Tox21 Assay Overview: The farnesoid-X-receptor (FXR), a nuclear hormone receptor, is highly expressed in liver, intestine, kidney and adrenal cortex. Natural ligands of FXR are the bile acids (Cholic acid, Chenodeoxy cholic acid etc). FXR is an important regulator of diverse metabolic pathways, including the bile acid homeostasis, lipid and glucose metabolisms. FXR regulates the expression of target genes by binding either as a monomer or as a heterodimer with the retinoid X receptor (RXR). Numerous studies have reported that FXR exerts protective function during cholestasis, diabetes, liver regeneration, and cancer. To identify compounds that inhibit FXR signaling, GeneBLAzer FXR-UAS-bla HEK 293T cell line (Invitrogen, Carlsbad, CA) containing a beta-lactamase reporter gene under the control of a UAS response element was used to screen the Tox21 10K compound library.
Tox21 Assay Protocol Summary: FXR-bla cells were dispensed at 5000 cells/5uL/well in 1536-well black wall/clear bottom plates using a Multidrop Combi (Thermo Fisher Scientific, Waltham, MA) dispenser. After the assay plates were incubated at 37C and 5% CO2 for 5 h, 23 nL of compounds dissolved in DMSO, positive controls or DMSO only was transferred to the assay plate by a Pintool station (Kalypsys, San Diego, CA), followed by addition of 1 uL Chenodeoxycholic acid (50 uM, final concentration in the wells). The assay plates were incubated at 37C for 16 h. After 1 uL of LiveBLAzerTM B/G FRET substrate was added using a Bioraptr Flying Reagent Dispenser (FRD) workstation (Beckman Coulter, Indianapolis, IN), the plates were incubated at room temperature for 2 h, and fluorescence intensity was measured by an Envision plate reader (PerkinElmer, Shelton, CT).

[9] = target: Bile acid receptor (Homo sapiens) (UniProt Q96RI1); assay: qHTS assay to identify small molecule agonists of the farnesoid-X-receptor (FXR) signaling pathway (AID 743220; active = well fitted activation curve with a large enough effect in the signal ratio in the repeat runs, not every such curve was filed as active; the % refers to the signal ratio); settings: HEK293T FXR-UAS-bla, beta-lactamase FRET ratio, 16 h
[10] = target: Vitamin D3 receptor (Homo sapiens) (UniProt P11473); assay: qHTS assay to identify small molecule antagonists of the vitamin D receptor (VDR) signaling pathway (AID 743223; active = well fitted inhibition curve with a large enough effect in the signal ratio in the repeat runs, not every such curve was filed as active; the % refers to the signal ratio); settings: VDR-UAS-bla HEK293T, beta-lactamase FRET ratio, 16 h
Outline: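 VDR-bla cells were plated, incubated 4 h at 37C, then given compound and 1alpha,25-dihydroxyvitamin D3 (3 nM final). After 16 h at 37C, LiveBLAzer B/G FRET substrate was added for 2 h at room temperature and fluorescence read.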
% is set by controls: 0 for no effect and ±100 for the full control effect.

[NH4+].[O-][Cl+3]([O-])([O-])[O-]
inactive: viability change, negative = cytotoxic ([1]; at 94.8 µM (top of the series)) 3.99% | activation ([2]; at 62.6 µM (top of the series)) -1.51% | activation ([2]; at 81.1 µM (top of the series)) -0.637% | activity change, negative = cytotoxicity ([3]; at 62.6 µM (top of the series)) -7.03% | activity change, negative = cytotoxicity ([3]; at 81.1 µM (top of the series)) -14% | activation ([4]; at 62.6 µM (top of the series)) 0.675% | activation ([4]; at 81.1 µM (top of the series)) 1.81% | viability change, negative = cytotoxic ([5]; at 62 µM (top of the series)) 1.37% | viability change, negative = cytotoxic ([5]; at 80.4 µM (top of the series)) 4.04% | viability change, negative = cytotoxic ([6]; at 62.6 µM (top of the series)) 17.1% | viability change, negative = cytotoxic ([6]; at 81.1 µM (top of the series)) 8.91% | activity change, negative = cytotoxicity ([7]; at 81.1 µM (top of the series)) 4.27%

O=[N+]([O-])c1cccc([N+](=O)[O-])c1
inactive: activity change, negative = cytotoxicity ([3]; at 81.1 µM (top of the series)) -12.7% | activation ([4]; at 81.1 µM (top of the series)) 6.89% | activity change, negative = cytotoxicity ([7]; at 81.1 µM (top of the series)) -18%

CCOP(=O)(CC)OCC
inactive: viability change, negative = cytotoxic ([1]; at 73.3 µM (top of the series)) 2.63% | activation ([2]; at 62.6 µM (top of the series)) -0.149% | activity change, negative = cytotoxicity ([3]; at 62.6 µM (top of the series)) 2.74% | viability change, negative = cytotoxic ([5]; at 62 µM (top of the series)) 1.09% | activity change, negative = inhibition ([8]; at 62.6 µM (top of the series)) 0.623% | viability change, negative = cytotoxic ([6]; at 62.6 µM (top of the series)) 1.07% | activation ([9]; at 62.6 µM (top of the series)) 0.988% | activity change, negative = inhibition ([10]; at 61 µM (top of the series)) 7.33% | activity change, negative = cytotoxicity ([7]; at 62.6 µM (top of the series)) 1.63%

CC(C)N(CCO)C(C)C
inactive: viability change, negative = cytotoxic ([1]; at 73.3 µM (top of the series)) 4.85% | activation ([2]; at 62.6 µM (top of the series)) -1.3% | activity change, negative = cytotoxicity ([3]; at 62.6 µM (top of the series)) 0.616% | viability change, negative = cytotoxic ([5]; at 62 µM (top of the series)) 0.376% | activity change, negative = inhibition ([8]; at 62.6 µM (top of the series)) 0.867% | viability change, negative = cytotoxic ([6]; at 62.6 µM (top of the series)) -10% | activation ([9]; at 62.6 µM (top of the series)) 3.46%

OCCSCCO
inactive: viability change, negative = cytotoxic ([1]; at 73.3 µM (top of the series)) 10.1% | viability change, negative = cytotoxic ([1]; at 94.8 µM (top of the series)) 1.28% | activation ([2]; at 62.6 µM (top of the series)) -1.28% | activation ([2]; at 81.1 µM (top of the series)) -0.487% | activity change, negative = cytotoxicity ([3]; at 62.6 µM (top of the series)) 3.64% | activity change, negative = cytotoxicity ([3]; at 81.1 µM (top of the series)) -2.61% | activation ([4]; at 81.1 µM (top of the series)) -2.72% | viability change, negative = cytotoxic ([5]; at 62 µM (top of the series)) 1.34% | activity change, negative = inhibition ([8]; at 62.6 µM (top of the series)) -0.0431% | activity change, negative = inhibition ([8]; at 81.1 µM (top of the series)) -0.284% | viability change, negative = cytotoxic ([6]; at 62.6 µM (top of the series)) -24.4% | viability change, negative = cytotoxic ([6]; at 81.1 µM (top of the series)) 11.7% | activation ([9]; at 62.6 µM (top of the series)) -0.116% | activation ([9]; at 81.1 µM (top of the series)) -2.58% | activity change, negative = inhibition ([10]; at 61 µM (top of the series)) -0.727% | activity change, negative = inhibition ([10]; at 78.8 µM (top of the series)) 19.4% | activity change, negative = cytotoxicity ([7]; at 62.6 µM (top of the series)) 13.6% | activity change, negative = cytotoxicity ([7]; at 81.1 µM (top of the series)) 16.4%
